± gives the expanded uncertainty stated by the source.
Test: activity coefficient (dimensionless); of the first substance listed, at infinite dilution; xn = mol fraction of the nth substance listed
Details: Liquid, Chromatography, x1 = 0

Compound: CCCCOCCCC [dibutyl ether] + CCCCn1cc[n+](C)c1.N#CN=C=[N-]
- activity coefficient (318.15 K): 47.4 ± 3.2
- activity coefficient (328.15 K): 46.4 ± 3.2
- activity coefficient (338.15 K): 45.5 ± 3.1
- activity coefficient (348.15 K): 44.6 ± 3.1
- activity coefficient (358.15 K): 43.9 ± 3
- activity coefficient (368.15 K): 43.1 ± 3

Reference: the NIST ThermoML archive (doi:10.1016/j.fluid.2016.02.004)
